Data on 6 compounds can be found in ChEMBL document CHEMBL1221272, “Discovery and structure-activity relationships of a series of pyroglutamic acid amide antagonists of the P2X7 receptor” (Bioorg Med Chem Lett, 2010).

Sequences of proteins named here, by UniProt entry; tags and fusion partners are left off. A change or cut given only in a name is not applied to a line headed by its entry.
UniProt Q99572: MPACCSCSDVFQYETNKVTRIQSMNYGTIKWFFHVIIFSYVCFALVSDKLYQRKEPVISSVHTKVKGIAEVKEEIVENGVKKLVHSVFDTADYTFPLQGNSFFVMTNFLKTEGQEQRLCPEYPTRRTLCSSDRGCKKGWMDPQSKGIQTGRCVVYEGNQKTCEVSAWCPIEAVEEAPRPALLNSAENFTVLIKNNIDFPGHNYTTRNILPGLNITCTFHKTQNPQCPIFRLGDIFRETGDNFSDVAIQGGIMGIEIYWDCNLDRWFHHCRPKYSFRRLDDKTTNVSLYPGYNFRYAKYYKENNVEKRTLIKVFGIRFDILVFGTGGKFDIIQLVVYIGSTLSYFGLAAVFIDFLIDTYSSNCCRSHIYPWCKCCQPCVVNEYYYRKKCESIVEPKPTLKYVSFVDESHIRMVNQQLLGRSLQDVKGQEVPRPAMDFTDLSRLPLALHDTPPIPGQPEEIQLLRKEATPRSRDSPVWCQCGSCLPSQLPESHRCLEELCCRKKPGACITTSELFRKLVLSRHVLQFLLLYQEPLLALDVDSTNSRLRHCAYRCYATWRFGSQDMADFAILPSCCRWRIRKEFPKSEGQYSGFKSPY

Structures are written as SMILES.

For this test, the target named is P2X purinoceptor 7 (Homo sapiens, UniProt Q99572).
Broadly, the IC50 is the concentration that gives 50% inhibition. The low end stands for greater potency in that assay, the high end for weaker potency in that assay. Regarding `O=C(NCc1ccc(F)cc1Cl)[C@@H]1CCC(=O)N1Cc1ccccc1`, the half-inhibitory concentration (IC50) was < 1000 nM. Under `O=C(NCc1ccc(F)cc1Cl)[C@@H]1CCC(=O)N1C1CCC1` stands 25.1 nM; under `CCN1C(=O)CC[C@H]1C(=O)NCc1cccc(Cl)c1`, < 1000 nM; under `CCN1C(=O)CC[C@H]1C(=O)NCc1cccc(Cl)c1Cl`, 12.6 nM.

Regarding `CCN1C(=O)CC[C@H]1C(=O)NCc1ccc(Cl)cc1Cl`, the midpoint of inhibition, the IC50, lay at 6.31 nM. `CCN1C(=O)CC[C@H]1C(=O)NCc1cccc(C(F)(F)F)c1Cl` gave an IC50 of 1.58 nM.
